Reference: PMC11286758

Biological target: CSA-DDB1 (human) (UniProt Q13216)
Assay: nano-differential scanning fluorimetry; complexes at 2 µM in 20 mM HEPES pH 7.5, 150 mM NaCl, 5% glycerol, 0.5 mM TCEP; Prometheus NT.48, 350/330 nm ratio, 1 °C/min from 20 to 90 °C; compared with CSA-DDB1 alone

**Q.** How did the thermal stabilization (melting curve) against CSA-DDB1 alone turn out when “DDA1 (recombinant, C-terminal TwinStrep-flag tag) (from UniProt Q9BW61 1-102) (natural protein)” was run?
**A.** 1 degree
